Apoferritin bind: binds horse apoferritin like a general anesthetic. apoferritin/1-aminoanthracene competitive binding, fluorescence. Potency, µM (highest dose often 77.5 µM), for inactives: at the top dose activity change, negative = displacement, actives largely listed as inhibitors. 350,000 tested, 0.074% active. AID 485281; also: potency is read from the fitted curve at half-maximal effect; % is scaled to controls: 0 for no effect and ±100 for the full control effect; nearly all actives have a fitted effect of over 20% in size
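In PBS, apoferritin at 10 uM is loaded with 1-AMA from a 50% saturated solution. After 10 min of compound exposure at ambient temperature, reduced 535 nm fluorescence indicates probe displacement.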
TrxR1 substrate: substrates of rat thioredoxin reductase 1; O89049; purified TrxR1 substrate turnover, NADPH consumption readout; Potency, µM (titrated, usually from 114 µM), for inactives: at the top dose activity change, negative = substrate turnover; 390,000 tested, 0.01% active; AID 588456; also: potency is read from the fitted curve at half-maximal effect; % is scaled to controls: 0 for no effect and ±100 for the full control effect; nearly all actives have a fitted effect of over 50% in size
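Rat TrxR1, dispensed at 90 nM, was prereduced with 400 uM NADPH (final) for 5 min at ~22 deg C, then incubated with compound 15 min before 400 uM selenite. A first-read NADPH fluorescence drop versus no-compound background flagged substrates.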
TrxR1 inh: inhibitors of rat thioredoxin reductase 1. O89049. recombinant rTrxR1, NADPH fluorescence consumption, selenite substrate. Potency, µM (top dose mostly 114 µM), without a hit: at the highest dose activity change, negative = inhibition, most hits filed as inhibitors. 390,000 tested, 1% active; also: potency is read from the fitted curve at half-maximal effect; % is scaled to controls: 0 for no effect and ±100 for the full control effect; nearly all actives have a fitted effect of over 65% in size
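Rat TrxR1 (90 nM in the dispensed reagent) was pre-reduced with 400 uM NADPH for 5 min at room temperature, then incubated with compound for 15 min. After 400 uM selenite was added, NADPH fluorescence (Ex 340/Em 450 nm) was followed for 8 min.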
ClpP mod: qHTS Assay for Activators of ClpP; purified B. subtilis ClpP, FRET peptide cleavage, 20 min; Potency, µM (highest dose often 57.5 µM), for inactives: top-dose activity change, negative = active; 340,000 tested, 1.9% active; active = well fitted falling curve with a large enough effect; inconclusive = small, poorly fitted or top-dose-only effect; inactive = no such curve, though single readings can be large or run the other way; also: potency is read from the fitted curve at half-maximal effect; the source files actives as falling curves though it sought activators and does not explain the sign; nearly all actives have a fitted effect of over 65% in size
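FRET quenching reversal measured ClpP activation: 10 microg/mL B. subtilis ClpP at pH 8 with the FRET-FV decapeptide, read at 430 nm after 320 nm excitation. The 20-min minus 0-min signal was scaled between DMSO/no-enzyme wells and ADEP (5.8 microM final).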
miR-21 reporter: miR-21 reporter, rising signal | HeLa miR-21 FLuc reporter, luciferase, 48 h | Potency, µM (top dose mostly 38.3 µM), inactives show at the highest dose reporter change, positive = more light | 340,000 tested, under 10 active | AID 2288; active = well fitted rising curve with a large enough effect; inconclusive = small, poorly fitted or top-dose-only effect; inactive = no such curve, though single readings can be large or run the other way;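 note: % of control where 0% means no effect; miR-21 action dims this reporter so a rising signal means less miR-21 action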
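Compounds were titrated across several concentrations (up to approximately 40 uM) and incubated 48 hours with HeLa miR-21-FLuc reporter cells (miR-21 target sequence downstream of FLuc, endogenous miR-21). Readout was firefly luciferase luminescence after lytic detection reagent.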
* = called active by the depositor; ? = inconclusive; / = not tested or not shown; [ ] = remark or other dose. In the library only some 2.5% were active in any assay of this set; here they are far more common. Unless noted, calls follow the shape of the dose curve; as a rule, active = well fitted curve in the direction sought with a large enough effect; inconclusive = small, poorly fitted or top-dose-only effect, or another doubt; inactive = no such curve, though single readings can be large; an effect the other way counts as inactive or inconclusive.

Short forms: A = Apoferritin bind; B = TrxR1 substrate; C = TrxR1 inh; D = ClpP mod; E = miR-21 reporter
O=c1cc(CN2CCCCC2)c2c(ccc3ccccc32)o1
  A: / | B: / | C: / | D: -20% | E: /
CCCCCCn1c(/C=C/c2ccccc2)nc2ccccc21
  A: 63% | B: 104% | C: 50% | D: 4% | E: -32%
CCn1c(/C=C/c2ccccc2)nc2ccccc21
  A: -22% | B: 145% | C: 28% | D: 14µM* | E: -26%
CCC(C)n1c(/C=C/c2ccccc2)nc2ccccc21 (stereo not drawn)
  A: 2% | B: 46% | C: -18% | D: 3% | E: -34%
CC(C)Cn1c(/C=C/c2ccccc2)nc2ccccc21
  A: -3% | B: 124% | C: -4% | D: 7.1µM* | E: -29%
CCOC(=O)c1c(SCCN2CCCCC2)n(-c2ccccc2)c(=S)n(-c2ccccc2)c1=O
  A: / | B: -4% | C: 18µM* | D: 1% | E: /
CCOC(=O)c1c(SC)n(-c2ccccc2)c(=S)n(-c2ccccc2)c1=O
  A: 2% | B: 3% | C: 11% | D: / | E: 4%
CCN1CCN(C2=C(NS(=O)(=O)c3ccc(C)cc3)C(=O)c3ccccc3C2=O)CC1
  A: -19% | B: -2% | C: 79µM* | D: 2% | E: 12%
CCC(=O)N1CCc2cc(Br)cc(S(=O)(=O)NCCc3ccccc3Cl)c21
  A: 67% | B: -1% | C: 16% | D: 1% | E: 21%
O=C(COC(=O)c1cc2ccccc2oc1=O)c1cccc([N+](=O)[O-])c1
  A: -15% | B: -10% | C: -8% | D: 32µM* | E: -9%
O=C(NCc1ccc(Cl)cc1)c1cc2ccccc2oc1=O
  A: -2% | B: 9%[57.1 µM] | C: 7%[57.1 µM] | D: 20µM* | E: -9%
O=C(OCCn1cncn1)c1cc2ccccc2oc1=O
  A: -10% | B: 18% | C: 2% | D: 28µM* | E: -11%
COc1ccccc1C(=O)OCC(=O)c1cccc([N+](=O)[O-])c1
  A: -9% | B: -4% | C: -4% | D: 1% | E: -2%
O=C(NCc1ccccc1)c1cc2ccccc2oc1=O
  A: -18% | B: 8% | C: 19% | D: -11% | E: -38%
COC(=O)c1cc2ccccc2oc1=O
  A: 9% | B: 4% | C: -18% | D: 20µM* | E: -9%
O=C(OCc1nc2ccccc2s1)c1cc2ccccc2oc1=O
  A: -8% | B: / | C: / | D: / | E: -58%
CCc1ccccc1NC(=O)CN(Cc1ccccc1)S(=O)(=O)c1ccc2nc(C)sc2c1
  A: -1% | B: 3%[57.1 µM] | C: 2%[57.1 µM] | D: 3% | E: -2%
COc1ccccc1S(=O)(=O)Cc1ccc(C(=O)NCc2ccc(Cl)cc2)o1
  A: -18% | B: 5% | C: 6% | D: -1% | E: 8%
COC(=O)c1ccc(NC(=O)CSc2ncc3c(n2)-c2cc(Cl)ccc2N(Cc2ccccc2)S3(=O)=O)cc1
  A: -1% | B: 14%[57.1 µM] | C: 17%[57.1 µM] | D: ? | E: 6%
O=C(CS(=O)(=O)c1ccccc1)c1cc2ccccc2oc1=O
  A: -17% | B: -8% | C: 16µM* | D: -10% | E: -11%
COc1ccc(NS(=O)(=O)c2cc(NC(=O)c3cncc(Br)c3)ccc2OC)cc1
  A: / | B: 4% | C: 8% | D: 28µM* | E: /
COc1ccc(C(=O)Nc2ccccc2)cc1S(=O)(=O)Nc1ccc(Br)cc1
  A: -15% | B: 6% | C: 16% | D: 15% | E: -3%
COC(=O)c1ccc(NC(=O)c2c(NCc3ccc(OC)c(OC)c3)sc3c2CCCC3)cc1
  A: -4% | B: -6%[57.1 µM] | C: -22%[57.1 µM] | D: -1% | E: 4%
CCc1ccc(N2C(=O)c3ccc4c5c(ccc(c35)C2=O)CC4)cc1
  A: -9% | B: 13%[57.1 µM] | C: 14%[57.1 µM] | D: 25µM* | E: -8%
Cc1cc(-n2c(C)cc(C(=O)CSc3nc(N)cc(=O)[nH]3)c2C)no1
  A: -12% | B: -2% | C: 15% | D: -2% | E: 9%
Cc1cc(C(=O)CSc2nc(N)cc(=O)[nH]2)c(C)n1-c1ccc(OC(F)F)cc1
  A: -14% | B: 6%[57.1 µM] | C: 12%[57.1 µM] | D: 32µM* | E: 20%
COc1ccc(N2CCN(C(=O)CCc3c(C)nc4c(-c5ccccc5)c(C)nn4c3C)CC2)cc1
  A: -2% | B: 2% | C: 19% | D: 2% | E: 25%
O=C(O)/C=C/C(=O)c1ccc2c(c1)NC(=O)CO2
  A: -2% | B: -3%[57.1 µM] | C: 2.8µM* | D: / | E: 0%
O=C1COc2ccc(C(=O)COC(=O)c3ccc(Cl)cc3[N+](=O)[O-])cc2N1
  A: / | B: -3% | C: -26% | D: 0% | E: /
O=C1COc2ccc(C(=O)COC(=O)c3ccc([N+](=O)[O-])cc3Cl)cc2N1
  A: / | B: -11% | C: 50µM* | D: 3% | E: /
O=C1COc2ccc(C(=O)NC3CC3)cc2N1
  A: -5% | B: -12% | C: -11% | D: ? | E: 1%
O=C1COc2ccc(C(=O)COC(=O)c3ccco3)cc2N1
  A: -7% | B: -6% | C: 4% | D: -7% | E: 0%

An excerpt from above with just Apoferritin bind:
| mol | Apoferritin bind |
| --- | --- |
| COc1ccccc1S(=O)(=O)Cc1ccc(C(=O)NCc2ccc(Cl)cc2)o1 | -18% |
| COC(=O)c1ccc(NC(=O)CSc2ncc3c(n2)-c2cc(Cl)ccc2N(Cc2ccccc2)S3(=O)=O)cc1 | -1% |
| O=C(CS(=O)(=O)c1ccccc1)c1cc2ccccc2oc1=O | -17% |

Assay outcomes deposited in PubChem BioAssay by National Center for Advancing Translational Sciences (NCATS).
